The values that follow are results of earlier work, collected in US20150177227A1, “CELLULAR AND ANIMAL MODELS FOR SCREENING THERAPEUTIC AGENTS FOR THE TREATMENT OF ALZHEIMER'S DISEASE” (priority 2012, published 2015).

For series [1], the system named is Alzheimer's disease.
The subject of series [2] is plaque. The following applies: in vivo.

Turning to “bapineuzumab: humanized antibody from Johnson & Johnson/Pfizer shown to clear plaque”, the “benefit trend in phase II clinical trials” value in series [1] was “neither antibody showed any trend”. The plaque clearance entry in series [2] was “clear plaque”.
